Key:
[1] = biological target: GST-BRD4 (binding domain 1, amino acids 44-168) (Homo sapiens, UniProt O60885); experiment: Bromodomain binding assay (FRET); conditions: read-out: Bromodomain Binding Assay (BRD4) IC50; BRD4 binding domain 1, tetracetylated histone 4 peptide
Procedure: Inhibition of bromodomain binding was measured using a FRET (fluorescence resonance energy transfer) based assay. […] In the presence of the two detection reagents, streptavidin D2 and anti-GST-Eu (CisBio) binding trig-gers a FRET signal detected by fluorescence at 665 nm as measured using a Pherastar reader (BMG Labtech). Data was analysed using GraphPad Prism version 8.00 for Windows, (GraphPad Software, San Diego California USA) in order to calculate the IC50. Standard deviations for the calculated IC50's are within 25% of the mean.

[2] = biological target: PI3K; experiment: PI3K enzyme activity assay (luminescence, ATP consumption, Kinase-Glo); conditions: read-out: PI3K Enzyme Activity Assay IC50; 10 μM ATP, 180 μM phosphatidyl inositol, 60 min
Procedure: PI3K activity was determined using a luminescence assay measuring ATP consumption as described previously (J.-A. Pinson, Z. Zheng, M. S. Miller, D. K. Chalmers, I. G. Jennings, P. E. Thompson, L-Aminoacyl-triazine derivatives are isoform-selective PI3Kβ inhibitors that target nonconserved Asp862 of PI3Kb, ACS Med. Chem. Lett. 4 (2013) 206-210). PI3K enzyme activity was determined in 25 μl of 20 mM HEPES pH 7.5, 5 mM MgCl2 with 180 μM phosphatidyl inositol and 10 μMATP. After a 60 min incubation at room temperature the reaction was stopped by the addition of Kinase-Glo (Promega) followed by a further 15 min incubation. Luminescence was then read using a Fluostar plate reader (BMGLabtech).
Inhibitors were diluted in 20% (v/v) DMSO at the indicated concentrations in order to generate a concentration versus inhibition of enzyme activity curve which was then analysed using GraphPad Prism version 8.00 for Windows, (GraphPad Software, San Diego California USA) in order to calculate the IC50. Standard deviations for the calculated IC50's are within 25% of the mean.

[3] = test system: OPM2 cells; experiment: Cell proliferation assay (ViaLight, cellular ATP); conditions: read-out: Cell Proliferation Assay GI50, 5 days, 5 μM to 1 nM
Procedure: OPM2 cells (1×10^3) were plated in a 96 well plate. Test compounds were added to cells at final concentrations ranging from 5 μM to 1 nM. They were incubated for 5 days before they were analysed using ViaLight luminescence-based proliferation assays which detect cellular ATP, as per the manufacturer's instructions. All samples were prepared in technical triplicates. Data analysis was performed in GraphPad Prism version 7.00 for Mac OS X, (GraphPad Software, San Diego California USA) in order to calculate the GI50.

- IC50 [1]: 100 to 500 nM
- IC50 [2]: < 100 nM
SMILES: CC(=O)N1c2ccc(-c3ccc(CNC(=O)CNC(=O)c4cn5cc(-c6cnc(N)nc6)nc(N6CCOCC6)c5n4)s3)cc2CCC1C (stereo not drawn)
- GI50 [3]: 100 to 500 nM

From patent publication US20230312577A1, “DUAL KINASE-BROMODOMAIN INHIBITORS” (MONASH UNIVERSITY, priority 2020, published 2023)
